Results on one sequence are retold here after ChEMBL document CHEMBL1687783, “Prevalence and dissemination of oqxAB in Escherichia coli isolates from animals, farmworkers, and the environment” (2010).

The subject of assay [1] is Escherichia coli. As to conditions: C600.
The test system of assay [2] is Escherichia coli. Conditions: DH5[alpha].

As for GENTAMICIN, the MIC in assay [1] and in assay [2] was 0.5 µg/mL in each case.
